The chains behind the UniProt entries cited, without tags or fusion partners. Residues count along the entry.
UniProt Q04206, whole entry: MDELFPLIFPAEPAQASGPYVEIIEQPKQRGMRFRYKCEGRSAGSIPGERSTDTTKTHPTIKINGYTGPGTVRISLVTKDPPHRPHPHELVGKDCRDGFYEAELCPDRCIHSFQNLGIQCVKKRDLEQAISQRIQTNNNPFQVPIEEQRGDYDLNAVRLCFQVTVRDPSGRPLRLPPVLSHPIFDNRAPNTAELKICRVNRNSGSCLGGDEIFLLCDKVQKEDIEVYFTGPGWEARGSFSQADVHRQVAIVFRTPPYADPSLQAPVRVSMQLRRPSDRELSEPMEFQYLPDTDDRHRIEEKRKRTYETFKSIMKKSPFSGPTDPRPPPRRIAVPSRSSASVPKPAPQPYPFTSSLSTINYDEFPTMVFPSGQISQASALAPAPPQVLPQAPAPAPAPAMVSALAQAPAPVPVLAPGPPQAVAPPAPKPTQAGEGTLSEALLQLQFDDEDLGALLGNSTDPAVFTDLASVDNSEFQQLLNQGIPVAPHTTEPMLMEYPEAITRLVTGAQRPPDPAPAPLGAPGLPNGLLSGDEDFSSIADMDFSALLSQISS
UniProt Q04206, 1-537 limits assumed, stated change not applied: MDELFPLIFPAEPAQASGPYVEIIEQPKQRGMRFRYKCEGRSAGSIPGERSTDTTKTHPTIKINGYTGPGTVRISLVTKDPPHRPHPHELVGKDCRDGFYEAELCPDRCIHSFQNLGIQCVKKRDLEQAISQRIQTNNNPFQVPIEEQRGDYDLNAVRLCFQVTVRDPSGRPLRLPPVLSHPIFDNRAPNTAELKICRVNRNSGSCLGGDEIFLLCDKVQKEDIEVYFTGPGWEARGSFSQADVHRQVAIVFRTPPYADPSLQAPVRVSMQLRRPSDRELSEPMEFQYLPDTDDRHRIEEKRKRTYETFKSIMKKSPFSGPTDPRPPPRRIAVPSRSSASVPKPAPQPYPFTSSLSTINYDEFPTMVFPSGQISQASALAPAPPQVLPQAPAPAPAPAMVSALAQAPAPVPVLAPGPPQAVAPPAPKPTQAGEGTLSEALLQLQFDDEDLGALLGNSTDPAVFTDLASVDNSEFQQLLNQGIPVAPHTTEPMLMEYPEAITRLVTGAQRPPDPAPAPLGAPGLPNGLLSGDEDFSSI

In patent US8999937B2, “Glucocorticoid induced leucine zipper mimetics as therapeutic agents in multiple sclerosis” (Indiana University Research and Technology Corporation, priority 2011, dated 2015):

How the values were obtained:
[1] = target: T1, recombinant human p65 protein (r-p65) (Homo sapiens, UniProt Q04206); test: GILZ:p65 direct binding and kinetics by modified ELISA
T1 construct: control-P at varying concentrations was probed with full-length r-p65-DDK; purchased OriGene Technologies Inc., Rockville, Md
Procedure: To detect direct interaction, ELISA plates were coated with increasing concentrations of the GILZ protein and probed with increasing concentrations of the p65 protein followed by detection with anti-human GILZ mAb. To detect binding of cellular GILZ and p65, ELISA plates were coated with the p65 protein (20 ng), and probed with the cytoplasmic fraction from T cells. Binding of the plate bound p65 with the cytoplasmic GILZ protein was detected with anti-human GILZ mAb. Alternatively, wells coated with the GILZ-GST protein (20 ng) were probed with the nuclear fractions from T cells and the GILZ:nuclear p65 binding was detected with anti-human p65 mAb. The bound complex was detected with TNB at absorbance of 450 nm.
(§1) High binding ELISA plates coated with 40 μM r-p65/r-GILZ were probed with cytoplasmic/nuclear extracts, respectively, of CD4+ peripheral blood mononuclear cells stimulated with purified protein derivative (10 units/ml) for 48 h in the presence of dexamethasone (100 μg/ml). Binding of the plate-bound r-p65 with cytoplasmic GILZ and the plate-bound GILZ with nuclear p65 was detected with anti-GILZ mAb or anti-p65 mAb, respectively, followed by trinitrobenzene substrate. For detecting direct interaction of r-GILZ (5-40 μM), captured wells were probed with r-p65 (0.325-40 μM) at 22° C. for 2 h and detected with peroxidase-conjugated anti-GILZ mAb followed by trinitrobenzene substrate. Alternatively plates coated with GILZ-P, control-P (3.9-250 μM), r-GILZ (0.2-1.8 μM) were probed with 40 μM r-p65:DDK/p65ΔC14 and detected with anti-DDK/anti-p65 mAb, respectively. Absorbance at 650 nm was measured between 0 and 300 s with a mixing time of 0.30 s and a 5-s interval between readings.

p65ΔC14 = target: T2, p65ΔC14 (Homo sapiens, UniProt Q04206); test: GILZ binding ELISA with partial length p65; conditions: detected with anti-p65 mAb
T2 construct: purchased Active Motif, Carlsbad, Calif
Procedure: as §1

B1: r-GILZ: recombinant glucocorticoid induced leucine zipper protein (Abnova; OriGene with C-terminal DDK) (protein)
chain: MNTEMYQTPMEVAVYQLHNFSISFFSSLLGGDVVSVKLDNSASGASVVAIDNKIEQAMDLVKNHLMYAVREEVEILKEQIRELVEKNSQLERENTLLKTLASPEQLEKFQSCLSPEEPAPESPQVPEAPGGSAV
modifications: optional C-terminal DDK tag
In the case of B1, the “time at which maximum absorbance was reached in binding with r-p65” value [1] is reported as 210 s, the “adjusted velocity of the interaction with r-p65” value ([1]; at 1:4 molar concentrations) is reported as 7.5 s⁻¹ and the “p65 binding (absorbance) of plate-bound agent probed with full-length r-p65” value ([1]; varying coating concentrations, 40 μM r-p65) is reported as “decreased with decreasing concentrations”. The “absorbance of plate-bound agent probed with p65ΔC14” value (p65ΔC14) was “Absorbance over background was not observed”.
